2 substances from patent US8741916B2, “1,3,8-trisubstituted-1,3,8-triaza-spiro[4.5]decan-4-one derivatives as ligands of the ORL-1 receptor” (dated 2014) can be followed below.

The chains behind the UniProt entries cited, without tags or fusion partners. Where a name states a change or a piece, a line headed by the entry shows the natural chain unless it says otherwise.
UniProt P33535: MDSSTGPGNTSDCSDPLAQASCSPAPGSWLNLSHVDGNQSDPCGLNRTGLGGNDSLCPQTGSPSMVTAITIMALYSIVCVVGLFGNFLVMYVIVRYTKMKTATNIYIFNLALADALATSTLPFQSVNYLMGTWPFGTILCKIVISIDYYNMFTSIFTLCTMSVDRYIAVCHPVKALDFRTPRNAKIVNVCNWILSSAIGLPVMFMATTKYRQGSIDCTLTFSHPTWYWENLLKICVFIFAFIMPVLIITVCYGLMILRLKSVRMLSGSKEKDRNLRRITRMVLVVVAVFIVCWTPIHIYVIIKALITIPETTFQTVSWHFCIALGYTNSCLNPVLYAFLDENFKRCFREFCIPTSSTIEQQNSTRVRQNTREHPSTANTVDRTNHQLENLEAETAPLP
UniProt P41146: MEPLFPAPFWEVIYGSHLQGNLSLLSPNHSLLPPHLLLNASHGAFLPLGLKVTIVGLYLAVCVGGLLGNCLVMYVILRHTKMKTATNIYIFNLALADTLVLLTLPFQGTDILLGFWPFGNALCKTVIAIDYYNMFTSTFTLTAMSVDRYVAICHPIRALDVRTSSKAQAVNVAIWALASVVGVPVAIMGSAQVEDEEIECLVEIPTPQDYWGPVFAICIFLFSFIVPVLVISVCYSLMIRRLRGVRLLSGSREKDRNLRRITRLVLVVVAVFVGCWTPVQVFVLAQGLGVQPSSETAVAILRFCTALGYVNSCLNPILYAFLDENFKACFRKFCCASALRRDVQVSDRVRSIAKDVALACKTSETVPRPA

Assay [1] has as its target Mu opioid receptor (Rattus norvegicus, UniProt P33535). The assay can be described thus: Rat brain mu opioid receptor binding ([3H]DAMGO). The settings on record: read-out: Mu Ki; rat forebrain membranes; mean where tested more than once.
Assay [2] addresses recombinant human nociceptin receptor (ORL-1) (Homo sapiens, UniProt P41146). Briefly: Nociceptin receptor binding assay ([3H]-nociceptin, HEK293 cell membranes). The settings on record: read-out: ORL1 Ki, mean where tested more than once.

With “8-(R)-Acenaphthen-1-yl-3-[2-(4-dimethylaminomethyl-[1,2,3]triazol-1-yl)-ethyl]-1-(4-fluoro-phenyl)-1,3,8-triaza-spiro[4.5]decan-4-one”, the Ki turned out to be 9.25 nM in assay [1] and 0.3 nM in assay [2].
In the same order, the values of “8-(S)-Acenaphthen-1-yl-3-[2-(4-dimethylaminomethyl-[1,2,3]triazol-1-yl)-ethyl]-1-(4-fluoro-phenyl)-1,3,8-triaza-spiro[4.5]decan-4-one” are 35 nM and 0.81 nM.

The term Ki denotes the dissociation constant of the complex between target and ligand, obtained from inhibition or displacement.
